# Source: US11912663B2 (dated 2024)
# Chains of the proteins cited; added tags and fusions are not shown. Residues count along the entry.
# UniProt P07949, 29-1114: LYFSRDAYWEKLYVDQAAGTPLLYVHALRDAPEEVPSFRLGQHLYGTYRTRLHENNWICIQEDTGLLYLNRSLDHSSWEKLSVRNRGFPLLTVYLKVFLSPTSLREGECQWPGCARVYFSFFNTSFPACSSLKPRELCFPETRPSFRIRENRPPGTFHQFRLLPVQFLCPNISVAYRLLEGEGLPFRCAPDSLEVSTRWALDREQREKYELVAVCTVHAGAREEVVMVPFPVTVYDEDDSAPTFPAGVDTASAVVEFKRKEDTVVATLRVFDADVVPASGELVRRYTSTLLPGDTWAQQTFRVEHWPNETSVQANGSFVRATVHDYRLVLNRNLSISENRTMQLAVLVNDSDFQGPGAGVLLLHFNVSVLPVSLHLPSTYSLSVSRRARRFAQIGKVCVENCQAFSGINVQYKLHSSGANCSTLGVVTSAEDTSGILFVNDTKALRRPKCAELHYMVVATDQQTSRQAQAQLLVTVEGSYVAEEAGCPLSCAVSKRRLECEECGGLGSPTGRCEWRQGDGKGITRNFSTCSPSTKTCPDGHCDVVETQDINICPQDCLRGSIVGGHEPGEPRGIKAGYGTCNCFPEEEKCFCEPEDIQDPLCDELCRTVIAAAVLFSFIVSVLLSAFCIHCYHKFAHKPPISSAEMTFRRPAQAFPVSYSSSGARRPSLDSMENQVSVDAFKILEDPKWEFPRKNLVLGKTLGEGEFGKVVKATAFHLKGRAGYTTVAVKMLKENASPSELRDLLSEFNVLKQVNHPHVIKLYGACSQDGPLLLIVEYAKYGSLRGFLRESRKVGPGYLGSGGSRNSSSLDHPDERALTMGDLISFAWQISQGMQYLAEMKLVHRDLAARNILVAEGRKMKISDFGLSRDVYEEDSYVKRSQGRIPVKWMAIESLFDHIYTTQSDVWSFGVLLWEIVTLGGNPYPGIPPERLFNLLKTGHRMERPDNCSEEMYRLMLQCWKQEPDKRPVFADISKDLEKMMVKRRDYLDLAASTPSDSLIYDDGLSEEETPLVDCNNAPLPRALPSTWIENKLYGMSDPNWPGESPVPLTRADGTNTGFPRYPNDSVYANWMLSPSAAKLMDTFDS
# Columns and labels:
# [1] = test system: gastric cancer cell line (SNU16); assay: tumor cell proliferation inhibition (CTG), gastric cancer cell line; type: cell-based; settings: Homo sapiens, SNU-16, 72 h, read-out: SUN16 IC50
# prostatic cancer (PC-3) = assay: tumor cell proliferation inhibition (CTG), PC-3; type: cell-based; settings: 72 h, read-out: PC-3 IC50
# [2] = test system: kidney cancer cell line (Caki-1); assay: tumor cell proliferation inhibition (CTG), kidney cancer cell line; type: cell-based; settings: Homo sapiens, CAKI-1, 72 h, read-out: Caki-1 (renal cancer) IC50
# [3] = test system: lung cancer cell line (A549); assay: tumor cell proliferation inhibition (CTG), lung cancer cell line; type: cell-based; settings: Homo sapiens, A549, 72 h, read-out: A549 (lung cancer) IC50
# [4] = test system: hepatocellular carcinoma cell line (Hep3B 2.1-7); assay: tumor cell proliferation inhibition (CTG), hepatocellular carcinoma cell line; type: cell-based; settings: Homo sapiens, 72 h, read-out: Hep3B 2.1-7 IC50
# [5] = test system: pancreatic cancer cell line (BXPC3); assay: tumor cell proliferation inhibition (CTG), pancreatic cancer cell line; type: cell-based; settings: Homo sapiens, BXPC-3, 72 h, read-out: BXPC3 (pancreatic cancer) IC50
# [6] = test system: cervical cancer cell lines (Hela); assay: tumor cell proliferation inhibition (CTG), cervical cancer cell line; type: cell-based; settings: Homo sapiens, 72 h, read-out: Hela IC50
# RET = RET (Homo sapiens (Human), UniProt P07949); assay: kinase inhibition, Mobility-Shift Assay; type: biochemical; settings: read-out: RET IC50; 23 μM ATP
IC50 [1],IC50 (prostatic cancer (PC-3)),IC50 [2],IC50 [3],IC50 [4],IC50 [5],IC50 [6],Compound,IC50 (RET)
> 10 µM,> 10 µM,> 5 µM,> 5 µM,> 5 µM,> 10 µM,> 10 µM,"CNC(=O)c1cc(Oc2ccc(NC(=O)Nc3ccc(Cl)c(C(F)(F)F)c3)cc2)ccn1 [Sorafenib, sorafenib, reference compound]",–
–,–,–,–,–,–,–,"CNC(=O)c1cc(Oc2ccc(NC(=O)Nc3ccc(Cl)c(C(F)(F)F)c3)c(F)c2)ccn1 [Regorafenib, regorafenib, reference compound]",> 0.01 µM
